Tested on: P388 Murine Tumor
Description: Combination treatment in mice. The P388 lymphoidal tumor was transplanted intraperitoneally (10^6 cells/mouse) into […] mice. The animals were randomized into control and treated groups after tumor implant. […] Therapy was repeated three times at four day intervals between each treatment.

CN(Cc1cnc2nc(N)nc(N)c2n1)c1ccc(C(=O)N[C@@H](CCC(=O)O)C(=O)O)cc1 [MTX, methotrexate]
Therapeutic activity (in words) (P388 in mice, maximum tolerated dose): this tumor was responsive to both folate analogues
Increased Life-Span (at maximum tolerated dose, q4d × 3 ip): +238%
